Measurements as given in patent US20100255521A1, “Fluorescent substrates for Detecting organophosphatase enzyme activity” (published 2010).

Protein sequences, listed by entry. Tags and fused reporters are not part of them. Lines headed by an entry give the natural chain unless they say otherwise; changes in a name come on top.
UniProt P27170: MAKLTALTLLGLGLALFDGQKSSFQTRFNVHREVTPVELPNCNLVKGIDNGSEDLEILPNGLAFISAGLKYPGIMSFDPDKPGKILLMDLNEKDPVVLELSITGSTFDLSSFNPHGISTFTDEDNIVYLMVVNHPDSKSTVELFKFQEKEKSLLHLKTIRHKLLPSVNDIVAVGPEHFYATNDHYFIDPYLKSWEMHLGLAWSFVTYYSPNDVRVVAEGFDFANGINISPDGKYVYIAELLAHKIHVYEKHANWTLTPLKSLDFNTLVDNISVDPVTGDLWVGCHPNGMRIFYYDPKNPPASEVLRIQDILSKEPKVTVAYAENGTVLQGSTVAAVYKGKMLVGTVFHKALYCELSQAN
UniProt P27169: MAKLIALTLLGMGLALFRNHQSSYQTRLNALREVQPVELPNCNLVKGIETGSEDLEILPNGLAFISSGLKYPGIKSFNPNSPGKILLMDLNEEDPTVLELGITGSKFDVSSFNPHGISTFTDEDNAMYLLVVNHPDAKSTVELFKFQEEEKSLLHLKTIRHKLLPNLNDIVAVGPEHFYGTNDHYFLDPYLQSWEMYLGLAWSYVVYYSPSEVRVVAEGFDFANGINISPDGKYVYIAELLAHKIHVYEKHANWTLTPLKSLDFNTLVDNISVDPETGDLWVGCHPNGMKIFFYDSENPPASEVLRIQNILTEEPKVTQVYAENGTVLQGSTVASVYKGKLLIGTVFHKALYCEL
UniProt P52430: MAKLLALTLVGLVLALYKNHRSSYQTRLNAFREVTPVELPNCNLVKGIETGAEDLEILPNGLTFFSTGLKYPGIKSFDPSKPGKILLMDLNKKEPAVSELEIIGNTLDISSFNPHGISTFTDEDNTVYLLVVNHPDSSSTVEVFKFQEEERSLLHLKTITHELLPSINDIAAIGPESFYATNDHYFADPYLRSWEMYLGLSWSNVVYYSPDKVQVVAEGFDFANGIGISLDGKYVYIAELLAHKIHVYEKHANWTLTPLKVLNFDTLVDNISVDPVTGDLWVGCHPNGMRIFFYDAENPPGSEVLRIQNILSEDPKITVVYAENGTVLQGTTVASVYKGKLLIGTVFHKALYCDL

Assays:
[1] = test system: human PON1 (mutants and natural variants) expressed in CHO cells; conditions: 100 μM substrate, 355/460
[2] = target: rabbit recombinant paraoxonase (Oryctolagus cuniculus, UniProt P27170); experiment: Km of recombinant rabbit paraoxonase for DEPFMU, Lineweaver-Burk plot
[3] = target: OPH (Brevundimonas diminuta, UniProt P0A434); experiment: OPH detection sensitivity and kinetics of OPH mediated hydrolysis (Example 7)
[4] = target: human paraoxonase (PON1) expressed in CHO cells (Homo sapiens, UniProt P27169); conditions: 100 μM substrate, 48 hours after transfection, 355/460
[5] = test system: PON1 variant/mutants (145-6, 142-2, 131-10, 122-7) in CHO cells; experiment: Hydrolysis of DEPFMU by CHO cells transfected with PON1 mutants; conditions: 40 μg/mL substrate, 10 min at 37 C
[6] = target: recombinant human paraoxonase, expressed in CHO cells (Homo sapiens, UniProt P27169); conditions: incubation with PON1 transfected CHO cells, fluorescence 355/460
[7] = target: bacterial OPH (Brevundimonas diminuta, UniProt P0A434); experiment: Detection of OPH with FDPTEE (Example 9, FIG. 7); conditions: 100 μM FDPTEE, 30 min at 37° C., Ex 488 nm/Em 520 nm
[8] = target: serum paraoxonase (Mus musculus, UniProt P52430); experiment: FDPTEE hydrolysis by sera of normal and PON1 KO mice (FIG. 8); conditions: sera diluted 1/10, 100 μM FDPTEE, 30 min at 37° C., Ex 488 nm/Em 520 nm
[9] = test system: serum paraoxonase; experiment: as above; conditions: sera diluted 1/10, 100 μM FDPTEE, 30 min at 37° C., Ex 488 nm/Em 520 nm

Substance	hydrolysis by PON1 transfected CHO cells [1]	hydrolysis by mock-transfected (control) CHO cells [1]	Km [2] [µM]	Km [3] [µM]	catalytic rate (kcat) of OPH mediated hydrolysis [3] [s⁻¹]	sensitivity for OPH detection relative to paraoxon [3]	hydrolysis by CHO cells transfected with the vector expressing paraoxonase [4]	hydrolysis by mock-transfected CHO cells [4]	Spontaneous hydrolysis of substrate by CHO non-transfected cells [5]	hydrolysis by control CHO cell [5]	hydrolysis by the four PON1 mutants ([5]; 355/460)	hydrolysis by paraoxonase [6]	level of reliable detection of OPH per well [7] [fmol]	fluorescence in sera from normal C57Black mice [8]	fluorescence in sera from PON1 KO mice [9]
6,8-difluoro-4-methylumbelliferyl phosphate	do hydrolyze significant amount	do hydrolyze significant amount	–	–	–	–	–	–	–	–	–	–	–	–	–
7-diethyl-phospho-6,8-difluoro-4-methylumbelliferyl	significant hydrolysis	do not hydrolyze	666	29	25	around 100 times	significant hydrolysis	do not hydrolyze	about 3%	did not hydrolyze	very high efficiency	specifically hydrolyzed	–	–	–
fluorescein diphosphate tetraethyl ester	–	–	–	–	–	–	–	–	–	–	–	–	100	significant fluorescence was detected	No fluorescence was detected
